# AlphaSeq binding of Ab-14 heavy chain variants to a spike HR2 peptide

Binding partner: SARS-CoV-2 spike HR2 peptide, sequence PDVDLGDISGINAS.

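This is the validation round: designs drawn from the data on random variants, tested in the same kind of assay. Several design methods are mixed in this list. Affinity was read by AlphaSeq, a pooled yeast mating assay with surface-displayed partners. Mating (16 h, 30 °C) was followed by selection of diploids and sequencing of their barcodes. Read counts were normalised to the haploid input and turned into Kd by a linear fit to BCL2-family pairs of known affinity, for each replicate. There are six technical replicates.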

Each scFv is VH, a (GGGGS)3 linker, VL, as in the parent Ab-14, and differs from it in the CDRs of the heavy chain only.
VH: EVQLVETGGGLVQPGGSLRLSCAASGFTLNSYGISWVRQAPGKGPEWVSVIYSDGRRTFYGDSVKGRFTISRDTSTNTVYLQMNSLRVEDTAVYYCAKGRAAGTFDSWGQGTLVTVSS
VL: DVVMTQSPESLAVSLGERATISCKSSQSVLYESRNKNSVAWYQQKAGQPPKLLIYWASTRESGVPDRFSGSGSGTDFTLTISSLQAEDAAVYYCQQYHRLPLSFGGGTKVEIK

The parent's heavy chain CDRs are GFTLNSYGIS, VIYSDGRRTFYGDSVK, GRAAGTFDS; each variant's own CDRs replace them letter for letter. Variants here have more than six changes. Each Kd is an estimate from the mating assay, the geometric mean of the replicates in which the pair was seen; lower is stronger. Where no diploid with the target was found in any replicate, the entry reads "nd": below detection, most likely a poor binder, though not proof of it. Background: pairings of all heavy chain designs with three empty control strains gave a value in 1% of cases (median 120 nM, 5th percentile 7.0 nM). Values in that range, when seen in few replicates, are hard to tell from nonspecific mating. The range of this assay differs from that of the first round, and the authors advise against merging the two. The authors' rule: three or more of the six replicates give a measured affinity, fewer mean a poor binder.

For GQDLNEYGIS / VIYADGLRQAYSENVK / GNISQFDDV, the assay gave nd (0 of 6 replicates).
For GFDLNEYGIS / VIYADGMRTFYADDVK / GETAGTFDV, the assay gave 610 pM (6 of 6 replicates).
For GFDLDEYGIS / VIYADGKRTAYTDSVK / GGNAGTFDV, the assay gave 540 pM (6 of 6 replicates).
For GFDLGEYGIS / VIYADGSRVSYAQKVK / GKNDAISYV, the assay gave nd (0 of 6 replicates).
For GFNLDEYGIS / VIYADGRRTFYADSVK / GEGAGTFDF, the assay gave 33 nM (6 of 6 replicates).
For GFDLNEYGIS / VIYADGKRTAYADDVK / GNTAGTFDI, the assay gave 320 pM (6 of 6 replicates).
For GFNLDEYGIS / VIYADGVRKAYSSKVK / GKVHWFNLQ, the assay gave 1.6 nM (6 of 6 replicates).
For GFDLEDYGIS / VIYADGKRTQYAQKFK / GTIGGTFVD, the assay gave 2.2 nM (3 of 6 replicates).
For GFDLNEYGIS / VIYADGRRTFYSDSVK / GETAGTFIQ, the assay gave 15 nM (6 of 6 replicates).
For GFDLNEYGIS / VIYADGSRTAYADSVK / GNQAGTFDM, the assay gave 2.1 nM (6 of 6 replicates).
For GFDLNEYGIS / VIYADGKRTAYSDDVK / GNVAGTFDV, the assay gave 280 pM (6 of 6 replicates).
For GFDLNEYGIS / VIYADGKRTAYSDDVK / GENAGTFDV, the assay gave 620 pM (6 of 6 replicates).
For GFDLNEYGIS / VIYADGMRTAYSDDVK / GNQAGTFDV, the assay gave 200 pM (6 of 6 replicates).
For GFTLRQVGIT / VIYSDGRRTRYSDSVK / GRPAGFYDF, the assay gave nd (0 of 6 replicates).
For GFDLNEYGIS / VIYADGIRQAYEDSVK / GRNIIGFLF, the assay gave nd (0 of 6 replicates).
For GFNLNEYGIS / VIYADGRRTFYADSVK / GQVAGTFIV, the assay gave 1.9 nM (6 of 6 replicates).
For GFDLEDYGIS / VIYADGRRTAYIDSVK / GNVAGTFDV, the assay gave 390 pM (6 of 6 replicates).
For GFKLDEYGIS / VIYADGSRTEYVQSVK / GDTTVSKFV, the assay gave 40 nM (1 of 6 replicates).
For GFDLNEYGIS / VIYADGMRTYYADDVK / GGNAGTFDV, the assay gave 150 pM (6 of 6 replicates).
For GFDLNEYGIS / VIYADGMRTAYADDVK / GDNAGTFDI, the assay gave 520 pM (6 of 6 replicates).
For GFELDEYGIS / VIYADGIRRQYADNVK / GYTDDAFDM, the assay gave nd (0 of 6 replicates).
For GFDLGEYGIS / VIYADGSRSAYAKNVK / GGSVYKDDV, the assay gave 220 nM (1 of 6 replicates).
For GFDLNEYGIS / VIYADGMRTAYADSVK / GNLAGTFDI, the assay gave 260 pM (6 of 6 replicates).
For GFDLDEYGIS / VIYADGSRTAYADSVK / GNVAGTFDI, the assay gave 570 pM (6 of 6 replicates).
For GFDLNEYGIS / VIYADGRRTFYSDSVK / GQTAGTFDQ, the assay gave 430 pM (6 of 6 replicates).
For GFDLDEYGIS / VIYADGMRSAIRESVK / GEISGTLNA, the assay gave 2.7 nM (5 of 6 replicates).
For GFDLNEYGIS / VIYADGMRTAYADSVK / GDNAGTFDI, the assay gave 990 pM (6 of 6 replicates).
For GFDLNEYGIS / VIYADGVRTFYADSVK / GQAAGTFTL, the assay gave nd (0 of 6 replicates).
For GFDLNEYGIS / VIYADGRRTAYSDSVK / GNQAGTFDQ, the assay gave 1.3 nM (6 of 6 replicates).
For GFDLNEYGIS / VIYADGMRTHYTDSVK / GNEAGTFDL, the assay gave 95 pM (5 of 6 replicates).
For GYDLDQYGIS / VIYADGKRSYYADSVK / GHEGGILYV, the assay gave 840 nM (1 of 6 replicates).
For GFDLNEYGIS / VIYADGRRTFYADSVK / GEIAGTFSF, the assay gave 330 pM (6 of 6 replicates).
For GFNLDEYGIS / VIYADGRRTAYSDSVK / GEVAGTFDI, the assay gave 230 nM (2 of 6 replicates).
For GFILDEYGIS / VIYADGQRSAYKDSVK / GVDDATGVI, the assay gave nd (0 of 6 replicates).
For GFDLNEYGIS / VIYADGKRTAYLQNVK / GVNAGFDQY, the assay gave nd (0 of 6 replicates).
For GFDLDEYGIS / VIYADGVRTAYADSVK / GQVAGTFDV, the assay gave 920 pM (6 of 6 replicates).
For GFDLNEYGIS / VIYADGLRTAYADSVK / GQVAGTFDV, the assay gave 79 pM (6 of 6 replicates).
For GFDLNEYGIS / VIYADGRRTQYIDSVK / GEVAGTFDQ, the assay gave 2.7 nM (5 of 6 replicates).
For GFDLNEYGIS / VIYADGMRTAYSDSVK / GNTAGTFDI, the assay gave 1.0 nM (6 of 6 replicates).
For GFDINEYGIS / VVYADGMRQAYIENVK / GTLSGTFDA, the assay gave 1.1 nM (6 of 6 replicates).
For GFDLNEYGIS / VIYADGMRTAYIDSVK / GNQAGTFDL, the assay gave 900 pM (6 of 6 replicates).
For GFDLNEYGIS / VIYADGMRTAYADNVK / GENAGTFDM, the assay gave 330 pM (6 of 6 replicates).
For GFDLNEYGIS / VIYADGMRTAYTDSVK / GNHAGTFDV, the assay gave 210 pM (6 of 6 replicates).
For GFDLDEYGIS / VIYADGMRTAYADTVK / GENAGTFDV, the assay gave 330 pM (6 of 6 replicates).
For GFDLNEYGIS / VIYADGRRTFYADSVK / GENAGTFVQ, the assay gave 8.3 nM (6 of 6 replicates).
For GFDLNEYGIS / VIYADGQRTVYADSVK / GNTAGTFDV, the assay gave 1.0 nM (6 of 6 replicates).

Repeated from above, the 3 best binders with a signal in all replicates:

With GFDLNEYGIS / VIYADGLRTAYADSVK / GQVAGTFDV the result was 79 pM (6 of 6 replicates).
With GFDLNEYGIS / VIYADGMRTYYADDVK / GGNAGTFDV the result was 150 pM (6 of 6 replicates).
With GFDLNEYGIS / VIYADGMRTAYSDDVK / GNQAGTFDV the result was 200 pM (6 of 6 replicates).

Source: Li et al. 2023 (doi:10.1038/s41467-023-39022-2), MIT Lincoln Laboratory and A-Alpha Bio; data file from the FLAb repository.